Test results taken from patent US20110256229A1, “RAPID-ACTING PHARMACEUTICAL COMPOSITION” (published 2011).

Experiments:
[1] = External specific surface area by Friedrich or Blaine permeametry; settings: Friedrich or Blaine permeameter, n = 3, mean (± s.d.)
[2] = Apparent particle density by helium pycnometer; settings: n = 3, mean (± s.d.)

## Dibasic calcium phosphate dihydrate
[1]
  External specific surface area: 440 (±3.7) cm^2/g
[2]
  Apparent particle density: 2.884 (±0.001) g/cm^3
